The numbers were not newly measured in US20070021391A1, “Preventive/remedy for urinary disturbance” (priority 2003, published 2007), which cites them from elsewhere.

Sequences of proteins named here, by UniProt entry; tags and fusion partners are left off. Residues count along the entry.
UniProt P81908, whole entry: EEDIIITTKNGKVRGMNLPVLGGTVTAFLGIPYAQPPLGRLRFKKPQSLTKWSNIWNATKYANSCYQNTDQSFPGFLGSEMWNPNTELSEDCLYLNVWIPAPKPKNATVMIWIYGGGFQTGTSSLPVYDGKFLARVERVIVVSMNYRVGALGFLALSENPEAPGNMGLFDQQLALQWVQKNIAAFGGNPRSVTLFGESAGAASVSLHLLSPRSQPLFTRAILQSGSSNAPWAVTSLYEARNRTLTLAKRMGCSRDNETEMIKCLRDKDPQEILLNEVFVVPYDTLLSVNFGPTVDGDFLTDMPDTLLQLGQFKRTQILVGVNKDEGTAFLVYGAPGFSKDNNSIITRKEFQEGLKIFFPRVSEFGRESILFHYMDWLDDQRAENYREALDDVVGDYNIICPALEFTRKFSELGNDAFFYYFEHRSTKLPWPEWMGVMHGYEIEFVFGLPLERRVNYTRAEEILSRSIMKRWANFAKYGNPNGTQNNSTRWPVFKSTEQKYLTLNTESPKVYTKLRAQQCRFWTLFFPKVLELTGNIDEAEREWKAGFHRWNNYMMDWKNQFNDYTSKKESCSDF
UniProt O42275, 24-633: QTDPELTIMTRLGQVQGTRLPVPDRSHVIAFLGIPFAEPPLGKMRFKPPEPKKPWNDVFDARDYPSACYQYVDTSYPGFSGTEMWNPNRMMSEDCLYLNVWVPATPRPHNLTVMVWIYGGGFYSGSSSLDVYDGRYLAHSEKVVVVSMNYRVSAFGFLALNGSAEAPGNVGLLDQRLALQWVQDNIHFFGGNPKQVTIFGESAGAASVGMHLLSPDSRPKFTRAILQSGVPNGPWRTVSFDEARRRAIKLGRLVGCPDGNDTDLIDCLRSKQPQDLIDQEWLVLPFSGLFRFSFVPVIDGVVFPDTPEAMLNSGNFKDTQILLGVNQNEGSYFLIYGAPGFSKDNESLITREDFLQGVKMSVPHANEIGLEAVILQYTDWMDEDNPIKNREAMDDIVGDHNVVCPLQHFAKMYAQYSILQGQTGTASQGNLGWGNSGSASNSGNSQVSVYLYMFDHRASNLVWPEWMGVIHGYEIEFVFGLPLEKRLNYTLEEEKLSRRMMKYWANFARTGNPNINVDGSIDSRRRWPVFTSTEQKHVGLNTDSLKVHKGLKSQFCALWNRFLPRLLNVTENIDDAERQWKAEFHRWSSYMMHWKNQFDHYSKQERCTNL

The target of one data set is Butyrylcholine esterase (Equus caballus, UniProt P81908). The following applies: read-out: Butyrylcholine esterase inhibitory activity (IC50); cited from earlier work.
A further data set deals with Acetylcholine esterase (Electrophorus electricus, UniProt O42275). The settings on record: Electric eel; Literature 5 (tacrine line prints 6); read-out: Acetylcholine esterase inhibitory activity (IC50); cited from earlier work.

Each structure is given as a SMILES string.

With `CNC(=O)Oc1ccc2c(c1)[C@]1(C)CCN(C)[C@@H]1N2C` [Physostigmine], the 50% inhibitory concentration (IC50) is 0.03 µM at Butyrylcholine esterase and 10 µM on Acetylcholine esterase.
